Data from US8389565B2, “Glycosidase inhibitors and methods of synthesizing same” (Simon Fraser University, priority 2000, dated 2013).

Sequences of proteins named here, by UniProt entry; tags and fusion partners are left off. A line that says so, or that is headed by a name, gives the form on record, which may keep a tag or linker. Residues count along the entry.
UniProt P69328, other isoform, or with tags, fused parts or gaps: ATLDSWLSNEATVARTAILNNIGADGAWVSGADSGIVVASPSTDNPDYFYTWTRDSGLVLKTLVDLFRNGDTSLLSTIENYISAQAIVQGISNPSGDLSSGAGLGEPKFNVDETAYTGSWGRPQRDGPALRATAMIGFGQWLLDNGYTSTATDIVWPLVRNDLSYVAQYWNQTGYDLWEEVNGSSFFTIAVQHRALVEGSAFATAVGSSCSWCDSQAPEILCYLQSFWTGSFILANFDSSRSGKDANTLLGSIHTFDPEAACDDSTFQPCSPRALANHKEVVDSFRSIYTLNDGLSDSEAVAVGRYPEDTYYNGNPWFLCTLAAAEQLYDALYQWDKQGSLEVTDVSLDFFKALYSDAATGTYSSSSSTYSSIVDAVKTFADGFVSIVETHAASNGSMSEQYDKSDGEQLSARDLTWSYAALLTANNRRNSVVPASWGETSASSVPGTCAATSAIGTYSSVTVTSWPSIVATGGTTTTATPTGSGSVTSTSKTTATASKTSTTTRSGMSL
UniProt O43451, 87-954 limits assumed: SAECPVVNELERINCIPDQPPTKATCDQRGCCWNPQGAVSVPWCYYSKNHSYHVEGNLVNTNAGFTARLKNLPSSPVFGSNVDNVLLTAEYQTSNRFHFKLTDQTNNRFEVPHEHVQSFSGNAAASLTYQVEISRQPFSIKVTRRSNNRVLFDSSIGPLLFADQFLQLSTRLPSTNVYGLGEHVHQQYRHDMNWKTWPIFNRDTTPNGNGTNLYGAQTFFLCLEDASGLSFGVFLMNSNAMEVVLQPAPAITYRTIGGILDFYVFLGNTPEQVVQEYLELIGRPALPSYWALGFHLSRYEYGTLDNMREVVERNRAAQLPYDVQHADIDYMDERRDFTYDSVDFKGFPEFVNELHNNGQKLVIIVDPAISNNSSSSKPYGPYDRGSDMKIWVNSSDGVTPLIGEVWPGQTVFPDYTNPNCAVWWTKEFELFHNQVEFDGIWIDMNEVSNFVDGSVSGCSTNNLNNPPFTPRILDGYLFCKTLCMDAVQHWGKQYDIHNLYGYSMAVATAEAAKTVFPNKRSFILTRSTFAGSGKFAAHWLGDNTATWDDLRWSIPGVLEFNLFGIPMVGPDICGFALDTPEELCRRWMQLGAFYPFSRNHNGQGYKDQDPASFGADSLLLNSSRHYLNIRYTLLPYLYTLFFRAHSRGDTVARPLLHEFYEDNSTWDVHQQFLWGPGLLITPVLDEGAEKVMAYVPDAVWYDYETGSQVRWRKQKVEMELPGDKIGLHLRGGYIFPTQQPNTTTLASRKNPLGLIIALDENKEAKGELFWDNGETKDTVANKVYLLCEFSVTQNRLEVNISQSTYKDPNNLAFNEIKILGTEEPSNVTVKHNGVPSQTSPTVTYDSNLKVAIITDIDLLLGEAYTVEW

Legend:
[1] = target: T1, glucoamylase G2 form from Aspergillus niger (Aspergillus niger, UniProt P69328); assay: Inhibition of glucoamylase G2-catalyzed hydrolysis of maltose; type: biochemical; conditions: read-out: Ki GA (Glucoamylase)
T1 construct: purchased Novo Nordisk, Bagsvaerd, Denmark
Protocol: The glucoamylase G2 form from Aspergillus niger was purified from a commercial enzyme (Novo Nordisk, Bagsvaerd, Denmark) as described.^19,20 The initial rates of glucoamylase G2-catalyzed hydrolysis of maltose was tested with 1 mM maltose as substrate in 0.1 M sodium acetate pH 4.5 at 45° C. using an enzyme concentration of 7.0×10^−8 M and five inhibitor concentrations in the range 1 μm-5 mM. The effect of the inhibition on rates of substrate hydrolysis were compared for the different compounds.

[2] = target: Maltase Glucoamylase (MGA) (Homo sapiens, UniProt O43451); assay: Inhibition of recombinant human maltase glucoamylase (MGA), maltose substrate, glucose oxidase readout; type: biochemical; conditions: for Ki: maltose substrate, 100 mM MES buffer pH 6.5, 37° C., read-out: Ki value against recombinant human maltase glucoamylase (MGA)
Protocol: Enzyme Activity Assay. Analysis of MGA inhibition was performed using maltose as the substrate, and measuring the release of glucose. Reactions were carried out in 100 mM MES buffer pH 6.5 at 37° C. for 15 min. The reaction was stopped by boiling for 3 min. 20 μL aliquots were taken and added to […] of glucose oxidase assay reagent (Sigma) in a 96-well plate. Reactions were developed for 1 hour and absorbance was measured at 450 nm to determine the amount of glucose produced by MGA activity in the reaction. One unit of activity is defined as the hydrolysis of one […] of maltose per minute. All reactions were performed in triplicate and absorbance measurements were averaged to give a final result.
The program GraFit 4.0.14 was used to fit the data to the Michaelis-Menten equation and estimate the kinetic parameters, Km and Vmax, of the enzyme. Ki values for each inhibitor were determined by measuring the rate of maltose hydrolysis by MGA at varying inhibitor concentrations. Data were plotted in Lineweaver-Burk plots (1/rate vs. 1/[substrate]) and Ki values were determined by the equation Ki=Km[I]/(Vmax)m−Km, where “m” is the slope of the line. The Ki reported for each inhibitor was estimated by averaging the Ki values obtained from each of the different inhibitor concentrations.

Row | Compound | Ki [2] | also measured
1 | O=S(=O)([O-])O[C@@H](CO)[C@H](O)C[Se@+]1C[C@@H](O)[C@H](O)[C@H]1CO |  | Ki [1]: 720 µM
2 | O=S(=O)([O-])OC(C(O)C[Se+]1CC(O)C(O)C1CO)C(O)C(O)CO (single isomer, unassigned) [Compound 221] | 0.94 ± 0.06 µM | 
3 | O=S(=O)([O-])OC(C(O)C[Se+]1CC(O)C(O)C1CO)C(O)C(O)CO (single isomer, unassigned) [Compound 191] | 41 µM | 
4 | O=S(=O)([O-])OC(C(O)C[Se+]1CC(O)C(O)C1CO)C(O)C(O)CO (single isomer, unassigned) [Compound 250] |  | IC50 ([2]; read-out: IC50 value against recombinant human MGA): 1 µM
5 | O=S(=O)([O-])O[C@@H]([C@H](O)[C@H](O)CO)[C@H](O)C[Se@@+]1C[C@@H](O)[C@H](O)[C@H]1CO (racemic) [Compound 232] | 2.4 ± 0.7 µM | 
